# Yeast mating assay 1: variants of the scFv Ab-14

Values reported by Engelhart et al. 2022, doi:10.1038/s41597-022-01779-4 (FLAb copy).

Target: peptide PDVDLGDISGINAS, taken from heptad repeat 2 (HR2) of SARS-CoV-2 spike.

Parent scFv Ab-14: VH joined to VL by the linker GGGGSGGGGSGGGGS. Changes lie in the light chain CDRs alone.
VH: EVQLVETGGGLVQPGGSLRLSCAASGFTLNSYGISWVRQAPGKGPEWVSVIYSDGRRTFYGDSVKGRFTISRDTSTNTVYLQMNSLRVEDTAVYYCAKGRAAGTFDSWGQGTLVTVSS
VL: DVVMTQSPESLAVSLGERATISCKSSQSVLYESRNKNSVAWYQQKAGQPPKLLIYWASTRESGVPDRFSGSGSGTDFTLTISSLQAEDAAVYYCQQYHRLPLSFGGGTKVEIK

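The starting antibody came from a phage panning campaign against this peptide. Variants in AAYL50 differ from the parent at up to three CDR positions; double and triple changes were sampled at random. AlphaSeq pools MATa yeast showing the antibodies with MATalpha yeast showing the peptide. Pairs that bind mate more often; barcode pairs of the diploids are counted by sequencing. Read counts were normalised to the haploid input and turned into Kd by a linear fit to BCL2-family pairs of known affinity, for each replicate. Each pool was mated in three replicate cultures.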

Positions count from residue 1 of the parent VL; S25A puts A in place of S.
Every variant below is changed at S25 of the VL (sequential numbering).
Affinities are written as log10 Kd with Kd in nM; a lower number is a better binder.
Averages over replicates are reported, and they cover detected replicates only.
A pair that was not seen in any replicate is written "no signal"; this usually means weak binding, but a binder can also be missed.

S25A/V29G/P101M: 2.35 (3 of 3 replicates; controls 0 of 9).
S25D/N37V/R60T: no signal (0 of 3 replicates; controls 0 of 9).
S25Y/E32Y/A40H: 5.43 (1 of 3 replicates; controls 2 of 9).
S25C/K36S/L102N: 0.46 (3 of 3 replicates; controls 3 of 9).
S25P/L100M/S103H: 2.57 (3 of 3 replicates; controls 2 of 9).
S25A/N37S/W56C: 1.57 (3 of 3 replicates; controls 2 of 9).
K24H/S25K/E61P: 2.30 (3 of 3 replicates; controls 4 of 9).
S25M/N37T: 1.18 (3 of 3 replicates; controls 2 of 9).
S25W/N37G/H98K: 2.57 (3 of 3 replicates; controls 0 of 9).
S25V/R34I/A40M: no signal (0 of 3 replicates; controls 0 of 9).
S25H/Q27S/T59E: 0.89 (3 of 3 replicates; controls 0 of 9).
S25A/R60Y/H98Q: 5.99 (1 of 3 replicates; controls 0 of 9).
S25D/R60M/Y97A: no signal (0 of 3 replicates; controls 0 of 9).
S25F/Y97R/L100Y: 5.08 (2 of 3 replicates; controls 6 of 9).
S25M/N37Q/L100S: 1.93 (3 of 3 replicates; controls 5 of 9).
S25C/E32G/S58C: no signal (0 of 3 replicates; controls 0 of 9).
S25K/Q96T/L100Q: 3.33 (2 of 3 replicates; controls 0 of 9).
S25R/Y31G/L102W: 1.23 (3 of 3 replicates; controls 0 of 9).
S25L/S26R/L30E: 0.27 (3 of 3 replicates; controls 1 of 9).
S25F/V29R: 0.43 (3 of 3 replicates; controls 0 of 9).
S25N/R99V: 1.78 (3 of 3 replicates; controls 0 of 9).
S25E/S62Q/Y97A: no signal (0 of 3 replicates; controls 0 of 9).
S25N/N35V/V39I: 2.30 (3 of 3 replicates; controls 0 of 9).
S25G/H98Y: 0.95 (3 of 3 replicates; controls 1 of 9).
S25E/S28P: 0.74 (3 of 3 replicates; controls 2 of 9).
S25K/Y31T/S58K: 3.46 (3 of 3 replicates; controls 4 of 9).
S25I/R34Y/Q95E: no signal (0 of 3 replicates; controls 0 of 9).
S25M/V39L/E61I: 0.17 (3 of 3 replicates; controls 0 of 9).
S25Q/N35W/T59Q: 1.20 (3 of 3 replicates; controls 3 of 9).
S25H/V29H/S33F: 1.85 (3 of 3 replicates; controls 0 of 9).
S25N/P101T: no signal (0 of 3 replicates; controls 1 of 9).
S25T/N35G/A57T: no signal (0 of 3 replicates; controls 0 of 9).
S25D/T59R/Q95E: 3.76 (3 of 3 replicates; controls 6 of 9).
K24F/S25H/V29R: 2.71 (1 of 3 replicates; controls 0 of 9).
S25A/L30G: 0.83 (3 of 3 replicates; controls 3 of 9).
S25M/Q95L/S103Q: no signal (0 of 3 replicates; controls 1 of 9).
S25P/A57C/R60Q: no signal (0 of 3 replicates; controls 1 of 9).
S25R/L30C/L102T: no signal (0 of 3 replicates; controls 0 of 9).
S25P/Q95H/H98W: no signal (0 of 3 replicates; controls 0 of 9).
S25E/S26L/Y97P: 4.91 (1 of 3 replicates; controls 2 of 9).
S25I: -0.02 (3 of 3 replicates; controls 6 of 9).
S25M/Q27W/Q95V: no signal (0 of 3 replicates; controls 0 of 9).
S25W/V39H/Q95W: no signal (0 of 3 replicates; controls 1 of 9).
S25C/K36C/S58F: 2.34 (3 of 3 replicates; controls 1 of 9).
S25G/Q27E/S38K: 2.27 (3 of 3 replicates; controls 0 of 9).
S25D/S38C/P101S: no signal (0 of 3 replicates; controls 0 of 9).
S25I/Q27Y/A40Y: 4.12 (2 of 3 replicates; controls 1 of 9).
S25H/L30H/N35M: 1.53 (3 of 3 replicates; controls 2 of 9).
K24F/S25E/Y97V: no signal (0 of 3 replicates; controls 1 of 9).
S25Y/V29L/T59S: no signal (0 of 3 replicates; controls 0 of 9).
S25P/K36L/E61L: 1.17 (3 of 3 replicates; controls 0 of 9).

Picked from the list: the 8 lowest averages where every replicate gave a value.

changes	mean log10 Kd (nM)	seen in	control signals
S25I	-0.02	3/3	6/9
S25M/V39L/E61I	0.17	3/3	0/9
S25L/S26R/L30E	0.27	3/3	1/9
S25F/V29R	0.43	3/3	0/9
S25C/K36S/L102N	0.46	3/3	3/9
S25E/S28P	0.74	3/3	2/9
S25A/L30G	0.83	3/3	3/9
S25H/Q27S/T59E	0.89	3/3	0/9

In this assay the parent's reference entry averaged 0.65; its copy inside this library read 1.68.
As a blank, each scFv also met three strains without target: over library AAYL50, 18% of these pairings were detected, typically at 4.19 and seldom below 2.99. Also given: how often the same scFv was detected with the empty control strains.